Biological target: human plasma derived thrombin (human), P00734
Test: cell-based or functional assay

## MHKTAPPFDFEAIPEEYL (modifications not checked) [MH18]
  IC50, inhibition of thrombin amidolytic activity on S2238, 20 min pre-incubation: 0.0117 µM
